Read-outs that look alike come from different tables or passages of the source.
System: Mycobacterium tuberculosis 607
Settings: Examples 1-4, test microorganism not printed at the place

Which “potency of isolated product (text of the examples)” value (from here on “potency of isolated product”) (listed as 3-aminopropylamino-bleomycin hydrochloride) does the source give for Cc1c(N)nc(C(CC(N)=O)NCC(N)C(N)=O)nc1C(=O)NC(C(=O)NC(C)C(O)C(C)C(=O)NC(C(=O)NCCc1nc(-c2nc(C(=O)NCCCN)cs2)cs1)C(C)O)C(OC1OC(CO)C(O)C(O)C1OC1OC(CO)C(O)C(OC(N)=O)C1O)c1cnc[nH]1.Cl (stereo not shown) [Compound 5, 3-aminopropylamino-bleomycin] here?
The value was 1,934 mcg/mg.

For Cc1c(N)nc(C(CC(N)=O)NCC(N)C(N)=O)nc1C(=O)NC(C(=O)NC(C)C(O)C(C)C(=O)NC(C(=O)NCCc1nc(-c2nc(C(=O)NCCCN)cs2)cs1)C(C)O)C(OC1OC(CO)C(O)C(O)C1OC1OC(CO)C(O)C(OC(N)=O)C1O)c1cnc[nH]1.O=S(=O)(O)O (stereo not shown) [copper-free 3-aminopropylamino-bleomycin sulfate], which “potency of isolated product” value is on record?
The value was 1,850 mcg/mg.

With Cc1c(N)nc(C(CC(N)=O)NCC(N)C(N)=O)nc1C(=O)NC(C(=O)NC(C)C(O)C(C)C(=O)NC(C(=O)NCCc1nc(-c2nc(C(=O)NCCCN)cs2)cs1)C(C)O)C(OC1OC(CO)C(O)C(O)C1OC1OC(CO)C(O)C(OC(N)=O)C1O)c1cnc[nH]1.Cl (stereo not shown) [copper-free 3-aminopropylamino-bleomycin hydrochloride] as the molecule, how does the “potency of isolated product” value (hydrochloride) read?
Its value is 1,850 mcg/mg.

And the “potency of isolated product” value (listed as copper-free 3-aminopropylaminobleomycin hydrochloride, hydrochloride)?
Its value is 1,850 mcg/mg.
